Reference: PubChem BioAssay AID1385 (PCMD, 2008)
The entries are a selection whose mix differs from that of the whole data set. The source made the active and inactive calls.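 How the source made its calls: active means inhibition above 40% at the single screening dose; inactive means the rest.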

The chains behind the UniProt entries cited, without tags or fusion partners.
UniProt Q06609, whole entry: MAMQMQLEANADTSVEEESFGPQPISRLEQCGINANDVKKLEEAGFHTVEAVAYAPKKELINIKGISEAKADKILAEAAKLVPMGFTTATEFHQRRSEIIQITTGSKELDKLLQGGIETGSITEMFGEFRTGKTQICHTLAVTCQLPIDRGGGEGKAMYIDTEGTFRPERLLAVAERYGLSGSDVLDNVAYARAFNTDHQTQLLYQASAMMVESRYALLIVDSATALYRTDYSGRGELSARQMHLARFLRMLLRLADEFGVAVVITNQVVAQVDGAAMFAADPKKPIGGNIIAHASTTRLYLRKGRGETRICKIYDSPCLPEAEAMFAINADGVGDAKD

Target: DNA repair protein RAD51 homolog 1 (Homo sapiens) (UniProt Q06609)
Test: blockers of RAD51-mediated homologous recombination – biochemical, fluorescence, primary screen (AID 1385);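 further: 0% = DMSO control wells and 100% = blanks with heterologous ssDNA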
Details: hRad51 DNA strand exchange, fluorescence dequenching; at 10 µM; active compounds read high

Row | SMILES | inhibition
1 | c1ccc(CN2CCC(Nc3ccccc3)CC2)cc1 | inactive: -3.75%
2 | N#Cc1ccc(C(=O)NCC2(N3CCCCC3)CCCCC2)cc1 | inactive: -9.47%
3 | COc1ccc(C(=O)NCC2(N3CCOCC3)CCCCC2)cc1OC | inactive: -2.95%
4 | CCCOc1ccc(C)cc1CN(CCCl)CCCl | inactive: -6.29%
5 | COc1cc(OC)cc(C(=O)NCC2(N3CCOCC3)CCCCC2)c1 | inactive: 11.7%
6 | CCC(CO)(C(=O)OC1CN2CCC1CC2)c1ccccc1 (stereo unspecified) | inactive: -0.68%
7 | CC(C)(C)OC(=O)N1CCC(Nc2ccccc2)CC1 | inactive: -6.01%
8 | CCOc1ncccc1C(=O)NCC1(N2CCOCC2)CCCCC1 | inactive: -1.01%
9 | CN(C)c1ccc(C(=O)NCC2(N3CCCCC3)CCCCC2)cc1 | inactive: 0.66%
10 | Fc1ccccc1NC1CCN(Cc2ccccc2)CC1 | inactive: -0.26%
11 | Cc1ccc(OCC(C)C)c(CN(CCCl)CCCl)c1 | inactive: 13.7%
12 | COc1ccc(NC2CCN(CCc3ccccc3)CC2)c(OC)c1 | inactive: -4.46%
13 | CCOc1ccc(C)cc1CN(CCCl)CCCl | inactive: 2.01%
14 | N#CC1(Nc2ccccc2)CCN(Cc2ccccc2)CC1 | inactive: 5.52%
15 | O=C(OC1CN2CCC1CC2)C1c2ccccc2Oc2ccccc21 (stereo unspecified) | inactive: 5.97%
16 | CCOC(=O)N1CCC(Nc2ccc(OC)cc2)CC1 | inactive: 1.14%
17 | O=C(NCC1(N2CCOCC2)CCCCC1)c1cc2ccccc2o1 | inactive: -5.11%
18 | COc1ccc(C(=O)NCC2(N3CCCCC3)CCCCC2)c(OC)c1OC | inactive: -16.6%
19 | CN1CCC(Nc2cccc(F)c2)CC1 | inactive: -3.22%
20 | CC(C)c1ccc(NC2CCN(C(=O)OC(C)(C)C)CC2)cc1 | inactive: -6.61%
21 | COc1ccc(CN(CCCl)CCCl)cc1Cl | inactive: 8.88%
22 | CN(C)c1cccc(C(=O)NCC2(N3CCCCC3)CCCCC2)c1 | inactive: 11.7%
23 | COc1ccc(NC2CCN(C(=O)OC(C)(C)C)CC2)cc1 | inactive: -107%
24 | CN1CCN(CCOC(=O)C(O)(c2ccccc2)c2ccccc2)CC1 | inactive: 9.31%
25 | N#CC1(Nc2ccccc2)CCN(CCc2ccccc2)CC1 | inactive: 1.2%
26 | O=C(NCC1(N2CCCCC2)CCCCC1)c1cccc([N+](=O)[O-])c1 | inactive: -3.92%
